Sequences of proteins named here, by UniProt entry; tags and fusion partners are left off. Residues count along the entry.
UniProt P28335, 33-458: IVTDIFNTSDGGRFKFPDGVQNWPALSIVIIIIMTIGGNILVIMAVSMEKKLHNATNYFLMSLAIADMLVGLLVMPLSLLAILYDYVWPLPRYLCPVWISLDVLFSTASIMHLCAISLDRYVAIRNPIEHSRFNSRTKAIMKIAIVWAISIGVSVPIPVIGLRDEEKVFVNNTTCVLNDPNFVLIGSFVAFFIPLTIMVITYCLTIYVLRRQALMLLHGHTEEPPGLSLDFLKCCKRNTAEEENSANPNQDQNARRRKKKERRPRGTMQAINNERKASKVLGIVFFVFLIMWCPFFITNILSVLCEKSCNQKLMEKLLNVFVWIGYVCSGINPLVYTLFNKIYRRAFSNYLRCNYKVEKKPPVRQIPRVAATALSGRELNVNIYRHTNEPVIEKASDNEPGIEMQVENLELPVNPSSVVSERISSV

According to patent EP1202967B1, “SULFURIC ACID MONO-[3-({1-[2-(4-FLUORO-PHENYL)-ETHYL]-PIPERIDIN-4-YL}-HYDROXY-METHYL)-2-METHOXY-PHENYL]ESTER” (AVENTIS PHARMACEUTICALS INC., priority 1999, dated 2001):

Target: T1, human 5-HT2C (Homo sapiens, UniProt P28335)
T1 construct: expressed in transfected cells; membranes prepared
Test: Receptor binding assay, inhibition of [3H]-ligand binding to human 5-HT2C
Details: radioligand Kd at human 5-HT2C, CHO; saturation (Scatchard) and kinetic analysis
Procedure: Cells stably expressing the human homologs of the receptors (dopamine D2L, serotonin 5HT2A and 5HT2C, α1A adrenergic; cloned and expressed at Hoechst Marion Roussel; Grandy et al., 1989: Monsma et al., 1993; Schwinn et al., 1995) were grown: cell membranes were prepared, and kept frozen until used (Kongsamut et al., 1996). The relevance of these binding sites has been extensively discussed in the literature (see for example: Carlsson & Carlsson. 1990; Creese et al., 1976; Gorman & Vargas, 1995; Meltzer et al., 1989). All binding parameters were optimized at Hoechst Marion Roussel; ligand KdS were determined using both saturation analysis (Scatchard) as well as kinetic analysis (association and dissociation rates). Each batch of membrane was validated by checking the ligand Kd, and rank order of potency of selected standard compounds. […]
Membranes were rapidly thawed and diluted to an appropriate concentration (between 20 - 150 µg protein/assay point depending on receptor expression level) in Tris buffer and homogenized. […] Microscint scintillation cocktail (40 µl) were added and the filter plates were counted in a Packard Top Count scintillation counter. Data were analyzed to determine Ki's for compounds of interest (Prusoff & Cheng, […]).Table: Receptor Binding Parameters. […]

For `CN1C[C@@H](NS(=O)(=O)N(C)C)C[C@@H]2c3cccc4c3c(cn4C)C[C@H]21` [[^3H]mesulergine, reference compound], the Kd was 1.9 nM.
